Molecular target: NR2B-subtype NMDA receptors (Rattus norvegicus (Rat), UniProt P35439+Q00960)
Test: Radioligand binding assay (3H Ro 25-6981 competition, forebrain membranes)
Settings: 3H Ro 25-6981 (4 nM)
Protocol: Radioligand Binding Assay. […] Buchy D; Klingelschmidt A; Messer J; Bleuel Z; Kemp J A; Richards J G. […] Thawed brains were homogenized using a Dounce homogenizer and centrifuged at 48000×g for 20 min. The pellet was resuspended in cold buffer and homogenized again using a Dounce homogenizer. […] After incubation for 1 hr at room temperature, the membrane bound radioligand was harvested on to GF/B filter plates (treated with 0.5% PEI for 1 hr at room temperature). The filter plates were dried at 50° C. for 20 mins, incubated with microscint 20 for 10 minutes and finally, the counts were read on TopCount (Perkin Elmer). […] CPM values were converted to % inhibition and the concentration response curves were plotted using custom made software. Each experiment was repeated at least twice to obtain the final binding Ki values for experimental compounds.

The chains behind the UniProt entries cited, without tags or fusion partners. Residues count along the entry.
UniProt Q00960, 27-1482: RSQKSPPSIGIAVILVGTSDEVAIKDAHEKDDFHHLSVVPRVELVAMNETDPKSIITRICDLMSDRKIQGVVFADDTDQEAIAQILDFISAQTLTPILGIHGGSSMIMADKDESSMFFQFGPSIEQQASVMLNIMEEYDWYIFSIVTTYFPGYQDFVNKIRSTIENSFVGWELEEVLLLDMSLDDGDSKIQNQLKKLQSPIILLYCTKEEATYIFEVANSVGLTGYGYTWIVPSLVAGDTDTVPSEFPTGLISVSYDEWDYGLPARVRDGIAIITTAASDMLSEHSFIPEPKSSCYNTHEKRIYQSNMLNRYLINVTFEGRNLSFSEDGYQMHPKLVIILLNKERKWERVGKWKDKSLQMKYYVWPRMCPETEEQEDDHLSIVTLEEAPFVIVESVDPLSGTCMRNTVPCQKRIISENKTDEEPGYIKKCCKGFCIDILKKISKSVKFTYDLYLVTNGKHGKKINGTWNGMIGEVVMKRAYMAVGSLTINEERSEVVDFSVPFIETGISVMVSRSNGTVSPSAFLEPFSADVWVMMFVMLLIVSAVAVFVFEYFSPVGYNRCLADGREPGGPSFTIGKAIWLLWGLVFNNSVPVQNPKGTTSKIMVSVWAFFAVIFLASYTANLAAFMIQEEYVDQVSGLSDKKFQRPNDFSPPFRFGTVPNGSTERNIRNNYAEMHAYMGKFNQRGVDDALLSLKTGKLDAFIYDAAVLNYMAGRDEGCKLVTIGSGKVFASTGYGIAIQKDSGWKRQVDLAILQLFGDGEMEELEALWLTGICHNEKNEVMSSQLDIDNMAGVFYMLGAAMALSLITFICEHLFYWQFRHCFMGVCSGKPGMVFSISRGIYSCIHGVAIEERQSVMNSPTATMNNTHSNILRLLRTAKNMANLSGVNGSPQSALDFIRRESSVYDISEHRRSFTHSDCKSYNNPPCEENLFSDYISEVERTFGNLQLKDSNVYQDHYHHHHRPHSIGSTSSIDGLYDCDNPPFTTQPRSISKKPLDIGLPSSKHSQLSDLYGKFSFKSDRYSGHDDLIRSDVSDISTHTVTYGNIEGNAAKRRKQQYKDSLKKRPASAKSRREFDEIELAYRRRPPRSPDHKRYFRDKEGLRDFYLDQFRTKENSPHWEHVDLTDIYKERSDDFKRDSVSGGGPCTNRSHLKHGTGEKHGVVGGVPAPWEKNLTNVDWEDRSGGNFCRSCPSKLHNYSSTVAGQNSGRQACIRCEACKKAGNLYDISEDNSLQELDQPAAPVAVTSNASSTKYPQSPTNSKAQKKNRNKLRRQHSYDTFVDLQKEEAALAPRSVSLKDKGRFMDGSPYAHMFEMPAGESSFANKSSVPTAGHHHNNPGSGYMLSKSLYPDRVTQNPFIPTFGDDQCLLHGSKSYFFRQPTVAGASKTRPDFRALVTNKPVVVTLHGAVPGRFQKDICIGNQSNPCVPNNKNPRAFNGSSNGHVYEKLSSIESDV

SMILES: Cc1ccc(CN2CCC(N3CCC(c4ccc(O)cc4)C(F)(F)C3)C2=O)cc1 (single isomer, unassigned) [Example 51, P-1]
- Ki: 660 nM

SMILES: Cc1ccc(CN2CC[C@H](N3CC[C@H](c4ccc(O)cc4)[C@@H](F)C3)C2=O)cc1 [Example 46, P-1, (S)-3-((3R,4R)-3-fluoro-4-(4-hydroxyphenyl)piperidin-1-yl)-1-(4-methylbenzyl)pyrrolidin-2-one]
- Ki: 430 nM

SMILES: O=C1C(N2CCC(c3ccc(O)cc3)C(F)(F)C2)CCN1Cc1ccc(F)cc1 (single isomer, unassigned) [Example 54, P-4, 3-(3,3-difluoro-4-(4-hydroxyphenyl)piperidin-1-yl)-1-(4-fluorobenzyl)pyrrolidin-2-one]
- Ki: 26 nM

SMILES: Cc1ccc(CN2CCC(N3CCC(c4ccc(O)cc4)C(F)(F)C3)C2=O)cc1F (single isomer, unassigned) [Example 52, P-3, 3-(3,3-difluoro-4-(4-hydroxyphenyl)piperidin-1-yl)-1-(3-fluoro-4-methylbenzyl)pyrrolidin-2-one]
- Ki: 89 nM

SMILES: Cc1ccc(N2CCC(N3CCC(c4ccc(O)cc4)C(F)(F)C3)C2=O)cc1F (single isomer, unassigned) [Example 55, P-3]
- Ki: 130 nM

SMILES: O=C1C(N2CCC(c3ccc(O)cc3)C(F)(F)C2)CCN1Cc1ccc(F)cc1 (single isomer, unassigned) [Example 54, P-3, 3-(3,3-difluoro-4-(4-hydroxyphenyl)piperidin-1-yl)-1-(4-fluorobenzyl)pyrrolidin-2-one]
- Ki: 110 nM

SMILES: Cc1ccc(CN2CCC(N3CCC(c4ccc(O)cc4)C(F)(F)C3)C2=O)cc1F (single isomer, unassigned) [Example 52, P-1, 3-(3,3-difluoro-4-(4-hydroxyphenyl)piperidin-1-yl)-1-(3-fluoro-4-methylbenzyl)pyrrolidin-2-one]
- Ki: 690 nM

SMILES: Cc1ccc(CN2CC[C@@H](N3CC[C@H](c4ccc(O)cc4)[C@@H](F)C3)C2=O)cc1 [Example 46, P-2, (R)-3-((3R,4R)-3-fluoro-4-(4-hydroxyphenyl)piperidin-1-yl)-1-(4-methylbenzyl)pyrrolidin-2-one]
- Ki: 4.3 nM

SMILES: Cc1ccc(CN2CCC(N3CCC(c4ccc(O)cc4)C(F)(F)C3)C2=O)cc1F (single isomer, unassigned) [Example 52, P-2, 3-(3,3-difluoro-4-(4-hydroxyphenyl)piperidin-1-yl)-1-(3-fluoro-4-methylbenzyl)pyrrolidin-2-one]
- Ki: 6.2 nM

SMILES: Cc1ccc(CN2CCC(N3CCC(c4ccc(O)cc4)C(F)(F)C3)C2=O)cc1 (single isomer, unassigned) [Example 51, P-4]
- Ki: 11 nM

SMILES: Cc1ccc(CN2CC[C@H](N3CC[C@@H](c4ccc(O)cc4)[C@H](F)C3)C2=O)cc1 [Example 46, P-3, (S)-3-((3S,4S)-3-fluoro-4-(4-hydroxyphenyl)piperidin-1-yl)-1-(4-methylbenzyl)pyrrolidin-2-one]
- Ki: 340 nM

SMILES: Cc1ccc(N2CCC(N3CCC(c4ccc(O)cc4)C(F)(F)C3)C2=O)cc1F (single isomer, unassigned) [Example 55, P-1]
- Ki: 280 nM

SMILES: Cc1ccc(N2CCC(N3CCC(c4ccc(O)cc4)C(F)(F)C3)C2=O)cc1F (single isomer, unassigned) [Example 55, P-4]
- Ki: 430 nM

SMILES: O=C1C(N2CCC(c3ccc(O)cc3)C(F)(F)C2)CCN1Cc1ccc(F)cc1 (single isomer, unassigned) [Example 54, P-1, 3-(3,3-difluoro-4-(4-hydroxyphenyl)piperidin-1-yl)-1-(4-fluorobenzyl)pyrrolidin-2-one]
- Ki: 530 nM

SMILES: Cc1ccc(CN2CCC(N3CCC(c4ccc(O)cc4)C(F)(F)C3)C2=O)cc1 (single isomer, unassigned) [Example 51, P-3]
- Ki: 30 nM

SMILES: O=C1C(N2CCC(c3ccc(O)cc3)C(F)(F)C2)CCN1Cc1ccc(F)cc1 (single isomer, unassigned) [Example 54, P-2, 3-(3,3-difluoro-4-(4-hydroxyphenyl)piperidin-1-yl)-1-(4-fluorobenzyl)pyrrolidin-2-one]
- Ki: 8.5 nM

SMILES: Cc1ccc(N2CCC(N3CCC(c4ccc(O)cc4)C(F)(F)C3)C2=O)cc1F (single isomer, unassigned) [Example 55, P-2]
- Ki: 32 nM

SMILES: Cc1ccc(CN2CCC(N3CCC(c4ccc(O)cc4)C(F)(F)C3)C2=O)cc1 (single isomer, unassigned) [Example 51, P-2]
- Ki: 7.6 nM

SMILES: Cc1ccc(CN2CCC(N3CCC(c4ccc(O)cc4)C(F)(F)C3)C2=O)cc1F (single isomer, unassigned) [Example 52, P-4, 3-(3,3-difluoro-4-(4-hydroxyphenyl)piperidin-1-yl)-1-(3-fluoro-4-methylbenzyl)pyrrolidin-2-one]
- Ki: 6.7 nM
